The values that follow come from paper PMC3483567 (Chemistry & biology, 2012).

By UniProt entry, the sequences of proteins in these tests, tags left out.
UniProt Q9UGI6, whole entry: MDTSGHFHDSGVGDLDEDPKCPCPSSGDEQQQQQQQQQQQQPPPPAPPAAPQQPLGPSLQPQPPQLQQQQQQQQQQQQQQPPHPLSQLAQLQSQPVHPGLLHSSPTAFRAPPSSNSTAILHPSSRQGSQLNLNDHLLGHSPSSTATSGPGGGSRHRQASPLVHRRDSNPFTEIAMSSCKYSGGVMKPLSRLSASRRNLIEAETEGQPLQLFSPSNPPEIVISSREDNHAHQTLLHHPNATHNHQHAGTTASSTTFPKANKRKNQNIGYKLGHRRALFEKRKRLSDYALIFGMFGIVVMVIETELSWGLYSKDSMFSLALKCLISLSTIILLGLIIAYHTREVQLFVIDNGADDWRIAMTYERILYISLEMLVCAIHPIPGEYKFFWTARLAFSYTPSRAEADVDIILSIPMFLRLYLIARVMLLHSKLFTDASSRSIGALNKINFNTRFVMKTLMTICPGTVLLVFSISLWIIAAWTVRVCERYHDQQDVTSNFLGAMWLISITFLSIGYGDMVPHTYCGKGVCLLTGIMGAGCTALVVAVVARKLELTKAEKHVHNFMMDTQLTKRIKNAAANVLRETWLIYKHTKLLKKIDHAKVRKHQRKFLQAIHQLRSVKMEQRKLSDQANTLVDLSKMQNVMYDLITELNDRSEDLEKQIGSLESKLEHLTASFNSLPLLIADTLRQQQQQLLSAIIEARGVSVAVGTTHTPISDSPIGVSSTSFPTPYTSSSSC

For the experiment, the target named is hSK3 (Homo sapiens, UniProt Q9UGI6). The experiment in a line: biochemical.

Broadly, the EC50 is the concentration that produces a half-maximal response. Low values mean higher potency in that assay, high ones lower potency in that assay. For the compound `Nc1nc2ccc(OC(F)(F)F)cc2s1` [Riluzole], the EC50 came out at 16 µM.
